Laboratory results from US20020164721A1, “Design of a polyepitopic construct for the induction of HLA-A2.1 restricted HIV 1 specific CTL responses using HHD mice” (priority 1999, published 2002).

Tests used:
[1] = test system: peptide-pulsed HHD-transfected RMAS cells; assay type: in vivo, HHD mice; settings: for classification as immunogen: by number of responder mice and strength of responses, peptide in IFA; for Responder/tested mice: without helper peptide, 100 μg peptide s.c. in IFA
[2] = test system: peptide-pulsed HHD-transfected RMAS cells; assay type: in vivo, HHD mice; settings: with helper peptide; each responder mouse
[3] = test system: HHD-transfected RMA-S cells loaded with relevant peptide; assay: CTL response of HHD mice injected s.c. with tumor epitopic peptide in IFA (51Cr-release assay); assay type: in vivo
[4] = test system: HHD-transfected RMA-S cells loaded with relevant peptide; assay: CTL response of A2A2Kb mice injected s.c. with tumor epitopic peptide in IFA (51Cr-release assay); assay type: in vivo; settings: responder = at least 10% specific lysis
[5] = test system: HHD-transfected RMA-S target cells loaded with relevant peptide; assay: CTL response of HHD mice co-immunized in IFA with tumor peptide and HBVc.128 helper peptide; assay type: in vivo; settings: 50 μg CD8 peptide + 140 μg HBVc.128 helper in IFA
[6] = test system: peptide-loaded HHD-transfected RMA-S cells and HHD-transfected HeLa cells expressing the polyepitope; assay: Melanoma polyepitopic pCMV-B10 DNA immunization of HHD mice, CTL assay; assay type: in vivo; settings: pCMV-B10 DNA with 10 melanoma epitopes, FIG. 1C and D

## AKTPLCVTL (KLTPLCVTL) [K9L/T, HIV 1 ENV gp120 (120-128) CD8 epitopic peptide, T variant]
[1]
  classification as immunogen: inefficient
  Responder/tested mice: 0/6
[2]
  Maximal specific lysis (%): 27%

## AAGIGILTV [Melan-A/MART-1.27]
[3]; peptide alone in IFA, by number of responding mice and level of specific lysis
  hierarchy of CTL inducers: weak
[3]; peptide s.c. in IFA, no helper, responder = at least 10% specific lysis
  R/T (responder versus tested mice): 2/8
[4]
  R/T (responder versus tested mice): 0/6
[5]
  R/T (responder versus tested mice): 4/5
[6]; listed as Melan-A/MART.1,27
  CTL response against the epitope after melanoma polyepitope DNA immunization (in words): did not elicit CTL responses
[6]; listed as Melan-A/MART.1.27
  CTL response against the epitope after melanoma polyepitope DNA immunization (in words): Significant responses

## SLYNTVATL [S9L, HIV 1 GAG p17 (77-85) CD8 epitopic peptide]
[1]
  classification as immunogen: strong
  Responder/tested mice: 4/5
